Reference: US10100019B2

Test system: Ba/F3 EML4-ALK L1196M cells
Format: cell-based, rodent
Conditions: not given

Row | SMILES | BaF3 EML4 ALK L1196M [µM]
1 | COc1cc(C(C)(C)C#N)c(C)cc1Nc1ncc(Cl)c(Nc2ccccc2S(=O)(=O)C(C)C)n1 [Example 54, 2-(4-((5-chloro-4-((2-(isopropylsulfonyl)phenyl)amino)pyrimidine-2-yl)amino)-5-methoxy-2-methylphenyl)-2-methylpropanenitrile] | 0.44

Same assay, conditions: Ba/F3 EML4-ALK L1196M cells; method as Experimental Example 4; type of value not given

Row | SMILES | BaF3 EML4 ALK L1196M [µM]
2 | COc1ccc(CC(N)=O)cc1Nc1ncc(Cl)c(Nc2ccccc2S(=O)(=O)C(C)C)n1 [Example 42, 2-(3-((5-chloro-4-((2-(isopropylsulfonyl)phenyl)amino)pyrimidine-2-yl)amino)-4-methoxyphenyl)acetamide] | 0.56
3 | CCOCCOC(=O)Cc1ccc(OC)c(Nc2ncc(Cl)c(Nc3ccccc3S(=O)(=O)C(C)C)n2)c1 [Example 43, 2-ethoxyethyl 2-(3-((5-chloro-4-((2-(isopropylsulfonyl)phenyl)amino)pyrimidine-2-yl)amino)-4-methoxyphenyl)acetate] | >10
4 | COc1ccc(CC(=O)O)cc1Nc1ncc(Cl)c(Nc2ccccc2S(=O)(=O)C(C)C)n1 [Example 44, 2-(3-((5-chloro-4-((2-(isopropylsulfonyl)phenyl)amino)pyrimidine-2-yl)amino)-4-methoxyphenyl)acetic acid] | >10
5 | COc1ccc(CC(=O)N2CCOCC2)cc1Nc1ncc(Cl)c(Nc2ccccc2S(=O)(=O)C(C)C)n1 [Example 45, 2-(3-((5-chloro-4-((2-(isopropylsulfonyl)phenyl)amino)pyrimidine-2-yl)amino)-4-methoxyphenyl)-1-morpholinoethane-1-one] | 10
6 | COc1ccc(CC(=O)N2CCCCC2)cc1Nc1ncc(Cl)c(Nc2ccccc2S(=O)(=O)C(C)C)n1 [Example 46, 2-(3-((5-chloro-4-((2-(isopropylsulfonyl)phenyl)amino)pyrimidine-2-yl)amino)-4-methoxyphenyl)-1-(piperidine-1-yl)ethane-1-one] | 10
7 | COc1ccc(CC(=O)N2CCNCC2)cc1Nc1ncc(Cl)c(Nc2ccccc2S(=O)(=O)C(C)C)n1 [Example 48, 2-(3-((5-chloro-4-((2-(isopropylsulfonyl)phenyl)amino)pyrimidine-2-yl)amino)-4-methoxyphenyl)-1-(piperazine-1-yl) ethane-1-one] | 1.3
8 | COc1ccc(CC(=O)Nc2ccncc2)cc1Nc1ncc(Cl)c(Nc2ccccc2S(=O)(=O)C(C)C)n1 [Example 49, 2-(3-((5-chloro-4-((2-(isopropylsulfonyl)phenyl)amino)pyrimidine-2-yl)amino)-4-methoxyphenyl)-N-(pyridine-4-yl)acetamide] | 10
9 | COc1ccc(CC(=O)Nc2ccccc2)cc1Nc1ncc(Cl)c(Nc2ccccc2S(=O)(=O)C(C)C)n1 [Example 50, 2-(3-((5-chloro-4-((2-(isopropylsulfonyl)phenyl)amino)pyrimidine-2-yl)amino)-4-methoxyphenyl)-N-phenylacetamide] | 10
10 | COc1cc(Br)c(CCN)cc1Nc1ncc(Cl)c(Nc2ccccc2S(=O)(=O)C(C)C)n1 [Example 51, N2-(5-(2-aminoethyl)-4-bromo-2-methoxyphenyl)-5-chloro-N4-(2-(isopropylsulfonyl)phenyl)pyrimidine-2,4-diamine] | 1.6
11 | COc1cc(-c2cnn(C)c2)c(CCN)cc1Nc1ncc(Cl)c(Nc2ccccc2S(=O)(=O)C(C)C)n1 [Example 52, N2-(5-(2-aminoethyl)-2-methoxy-4-(1-methyl-1H-pyrazole-4-yl)phenyl)-5-chloro-N4-(2-(isopropylsulfonyl)phenyl)pyrimidine-2,4-diamine] | 0.49
12 | COc1cc(CC#N)c(C)cc1Nc1ncc(Cl)c(Nc2ccccc2S(=O)(=O)C(C)C)n1 [Example 53, 2-(4-((5-chloro-4-((2-(isopropylsulfonyl)phenyl)amino)pyrimidine-2-yl)amino)-5-methoxy-2-methylphenyl)acetonitrile] | 0.19
